Target: recombinant human stanniocalcin 1, C-terminally myc-his-tagged

B1: recombinant human PAPP-A (pregnancy-associated plasma protein-A, pappalysin-1) (protein)
chain: EARGATEEPSPPSRALYFSGRGEQLRLRADLELPRDAFTLQVWLRAEGGQRSPAVITGLYDKCSYISRDRGWVVGIHTISDQDNKDPRYFFSLKTDRARQVTTINAHRSYLPGQWVYLAATYDGQFMKLYVNGAQVATSGEQVGGIFSPLTQKCKVLMLGGSALNHNYRGYIEHFSLWKVARTQREILSDMETHGAHTALPQLLLQENWDNVKHAWSPMKDGSSPKVEFSNAHGFLLDTSLEPPLCGQTLCDNTEVIASYNQLSSFRQPKVVRYRVVNLYEDDHKNPTVTREQVDFQHHQLAEAFKQYNISWELDVLEVSNSSLRRRLILANCDISKIGDENCDPECNHTLTGHDGGDCRHLRHPAFVKKQHNGVCDMDCNYERFNFDGGECCDPEITNVTQTCFDPDSPHRAYLDVNELKNILKLDGSTHLNIFFAKSSEEELAGVATWPWDKEALMHLGGIVLNPSFYGMPGHTHTMIHEIGHSLGLYHVFRGISEIQSCSDPCMETEPSFETGDLCNDTNPAPKHKSCGDPGPGNDTCGFHSFFNTPYNNFMSYADDDCTDSFTPNQVARMHCYLDLVYQGWQPSRKPAPVALAPQVLGHTTDSVTLEWFPPIDGHFFERELGSACHLCLEGRILVQYASNASSPMPCSPSGHWSPREAEGHPDVEQPCKSSVRTWSPNSAVNPHTVPPACPEPQGCYLELEFLYPLVPESLTIWVTFVSTDWDSSGAVNDIKLLAVSGKNISLGPQNVFCDVPLTIRLWDVGEEVYGIQIYTLDEHLEIDAAMLTSTADTPLCLQCKPLKYKVVRDPPLQMDVASILHLNRKFVDMDLNLGSVYQYWVITISGTEESEPSPAVTYIHGSGYCGDGIIQKDQGEQCDDMNKINGDGCSLFCRQEVSFNCIDEPSRCYFHDGDGVCEEFEQKTSIKDCGVYTPQGFLDQWASNASVSHQDQQCPGWVIIGQPAASQVCRTKVIDLSEGISQHAWYPCTISYPYSQLAQTTFWLRAYFSQPMVAAAVIVHLVTDGTYYGDQKQETISVQLLDTKDQSHDLGLHVLSCRNNPLIIPVVHDLSQPFYHSQAVRVSFSSPLVAISGVALRSFDNFDPVTLSSCQRGETYSPAEQSCVHFACEKTDCPELAVENASLNCSSSDRYHGAQCTVSCRTGYVLQIRRDDELIKSQTGPSVTVTCTEGKWNKQVACEPVDCSIPDHHQVYAASFSCPEGTTFGSQCSFQCRHPAQLKGNNSLLTCMEDGLWSFPEALCELMCLAPPPVPNADLQTARCRENKHKVGSFCKYKCKPGYHVPGSSRKSKKRAFKTQCTQDGSWQEGACVPVTCDPPPPKFHGLYQCTNGFQFNSECRIKCEDSDASQGLGSNVIHCRKDGTWNGSFHVCQEMQGQCSVPNELNSNLKLQCPDGYAIGSECATSCLDHNSESIILPMNVTVRDIPHWLNPTRVERVVCTAGLKWYPHPALIHCVKGCEPFMGDNYCDAINNRAFCNYDGGDCCTSTVKTKKVTPFPMSCDLQGDCACRDPQAQEHSRKDLRGYSHG
% of total 125I-IGFBP-4 cleaved by PAPP-A after 120 min: only ˜15% of the total IGFBP-4 was cleaved when STC1 was present
